Results published in PMC5396026 (Chemical Research in Toxicology, 2016).
Structures can show the parent of a compound that is named as a salt.

Chains of the proteins cited; added tags and fusions are not shown. Lines headed by an entry give the natural chain unless they say otherwise; changes in a name come on top.
UniProt P10275: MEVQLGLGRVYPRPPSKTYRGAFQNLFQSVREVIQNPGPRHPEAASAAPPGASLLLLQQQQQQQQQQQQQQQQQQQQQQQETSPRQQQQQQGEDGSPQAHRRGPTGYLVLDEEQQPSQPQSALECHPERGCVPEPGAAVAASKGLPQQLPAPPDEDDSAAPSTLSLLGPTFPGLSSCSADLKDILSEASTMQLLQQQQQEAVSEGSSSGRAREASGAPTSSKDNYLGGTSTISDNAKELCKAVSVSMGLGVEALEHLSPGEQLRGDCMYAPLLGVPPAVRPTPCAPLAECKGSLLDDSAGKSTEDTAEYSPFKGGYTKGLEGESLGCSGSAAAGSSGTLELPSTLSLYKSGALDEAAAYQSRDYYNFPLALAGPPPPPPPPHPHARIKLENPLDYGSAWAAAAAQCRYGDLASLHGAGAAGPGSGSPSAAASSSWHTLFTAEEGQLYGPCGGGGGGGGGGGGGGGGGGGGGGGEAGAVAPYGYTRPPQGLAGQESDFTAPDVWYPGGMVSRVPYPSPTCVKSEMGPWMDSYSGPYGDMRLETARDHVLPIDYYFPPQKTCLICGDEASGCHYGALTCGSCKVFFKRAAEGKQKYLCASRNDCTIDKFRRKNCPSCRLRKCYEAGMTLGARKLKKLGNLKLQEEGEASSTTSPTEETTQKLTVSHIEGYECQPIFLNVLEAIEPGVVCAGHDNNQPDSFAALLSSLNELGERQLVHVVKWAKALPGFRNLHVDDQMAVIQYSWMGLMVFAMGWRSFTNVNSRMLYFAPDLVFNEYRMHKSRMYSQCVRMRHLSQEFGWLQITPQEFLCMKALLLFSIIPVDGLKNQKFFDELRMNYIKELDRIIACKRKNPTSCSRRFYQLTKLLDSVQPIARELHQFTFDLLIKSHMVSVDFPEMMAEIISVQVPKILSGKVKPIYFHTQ

Target: AR (Homo sapiens, UniProt P10275)
Settings: AC50 at 10 nM vs 0.5 nM R1881, 95% confidence intervals

SMILES	potency shift in antagonist confirmation assay
CCN(CC)CCOc1ccc(C(=C(Cl)c2ccccc2)c2ccccc2)cc1 [clomiphene citrate]	shift in the correct direction but with overlapping confidence intervals
CCCC1COC(Cn2cncn2)(c2ccc(Cl)cc2Cl)O1 (centres unmarked) [propiconazole]	significant shifts in the correct direction
